Earlier results as cited in patent publication US20050089581A1, “Magnesium-containing compositions and methods for enhancing dehydroepiandrosterone levels” (priority 2003, published 2005).

Tested on: DHEA levels
Conditions: oral administration

For magnesium taurate, the absorption is given as “difficult to absorb”.
